Patent US10570121B2, “Substituted dihydroisoquinolinone compounds” (priority 2014, dated 2020)

Chains of the proteins cited; added tags and fusions are not shown. Lines headed by an entry give the natural chain unless they say otherwise; changes in a name come on top.
UniProt Q15910, whole entry: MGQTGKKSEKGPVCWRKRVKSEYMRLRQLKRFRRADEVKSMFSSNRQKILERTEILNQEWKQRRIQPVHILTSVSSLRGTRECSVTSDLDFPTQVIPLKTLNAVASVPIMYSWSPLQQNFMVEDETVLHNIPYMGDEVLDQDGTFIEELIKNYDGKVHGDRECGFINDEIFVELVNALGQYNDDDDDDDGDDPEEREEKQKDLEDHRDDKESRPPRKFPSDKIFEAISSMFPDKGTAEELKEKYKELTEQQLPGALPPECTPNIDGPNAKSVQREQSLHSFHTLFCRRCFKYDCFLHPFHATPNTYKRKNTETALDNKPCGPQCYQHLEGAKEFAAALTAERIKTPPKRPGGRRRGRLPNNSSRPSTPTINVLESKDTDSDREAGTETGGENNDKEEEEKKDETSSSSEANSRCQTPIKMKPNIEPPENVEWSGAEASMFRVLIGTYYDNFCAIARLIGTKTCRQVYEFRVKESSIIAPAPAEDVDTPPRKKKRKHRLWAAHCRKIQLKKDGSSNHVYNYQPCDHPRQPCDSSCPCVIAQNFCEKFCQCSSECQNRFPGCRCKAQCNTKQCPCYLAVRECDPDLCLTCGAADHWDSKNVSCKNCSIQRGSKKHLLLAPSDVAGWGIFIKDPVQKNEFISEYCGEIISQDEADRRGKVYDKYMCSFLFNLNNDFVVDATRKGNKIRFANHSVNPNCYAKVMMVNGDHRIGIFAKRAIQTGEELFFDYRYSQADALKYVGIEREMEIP
UniProt Q15910, whole entry Y641N: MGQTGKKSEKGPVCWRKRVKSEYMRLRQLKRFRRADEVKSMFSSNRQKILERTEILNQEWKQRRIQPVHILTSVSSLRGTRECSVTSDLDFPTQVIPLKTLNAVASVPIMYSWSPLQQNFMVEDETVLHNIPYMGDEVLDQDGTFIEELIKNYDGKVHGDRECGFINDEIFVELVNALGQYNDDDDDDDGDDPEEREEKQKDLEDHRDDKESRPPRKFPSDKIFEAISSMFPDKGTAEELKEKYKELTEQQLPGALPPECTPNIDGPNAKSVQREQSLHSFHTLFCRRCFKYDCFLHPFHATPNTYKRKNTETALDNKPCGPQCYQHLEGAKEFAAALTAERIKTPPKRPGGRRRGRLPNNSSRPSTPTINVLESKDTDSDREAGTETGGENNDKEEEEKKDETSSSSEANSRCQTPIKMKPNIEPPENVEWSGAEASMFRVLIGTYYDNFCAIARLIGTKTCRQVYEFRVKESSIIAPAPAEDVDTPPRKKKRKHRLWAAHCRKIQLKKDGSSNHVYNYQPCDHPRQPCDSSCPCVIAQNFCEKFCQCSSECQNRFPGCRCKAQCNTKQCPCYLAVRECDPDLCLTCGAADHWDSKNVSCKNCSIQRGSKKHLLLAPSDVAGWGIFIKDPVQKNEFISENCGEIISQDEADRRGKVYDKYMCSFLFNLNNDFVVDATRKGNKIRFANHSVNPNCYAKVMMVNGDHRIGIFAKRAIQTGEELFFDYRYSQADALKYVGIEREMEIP

Experiments:
EZH2 Mutant Y641N = EZH2 Mutant Y641N (Homo sapiens (Human), UniProt Q15910, Y641N); experiment: EZH2 Mutant Y641N nucleosome assay; format: biochemical; conditions: read-out: EZH2 Mutant Y641N Nucleosome assay IC50; PRC2 4-protein complex 6 nM, 1.5 μM SAM, HeLa oligonucleosomes
WT EZH2 = WT EZH2 (Homo sapiens (Human), UniProt Q15910); experiment: WT EZH2 nucleosome assay (10X SAM, high SAM conditions); format: biochemical; conditions: read-out: WT EZH2 Nucleosome assay (10X SAM) Ki, 15 uM SAM, Ki app from competitive inhibition fit

Work on `Cc1cc(OC(F)F)c(CN2CCc3c(Cl)cc(C(CO)C4CCOCC4)c(Cl)c3C2=O)c(=O)[nH]1` (single isomer, unassigned) yielded an IC50 (EZH2 Mutant Y641N) of 0.843 µM and a Ki (WT EZH2) of 0.162 µM.
